Reference: paper PMC3961306, “Comparison of the Cancer Gene Targeting and Biochemical Selectivities of All Targeted Kinase Inhibitors Approved for Clinical Use” (PLoS ONE, 2014)

Sequences of proteins named here, by UniProt entry; tags and fusion partners are left off. Residues count along the entry.
UniProt Q9H4B4, whole entry, stated change not applied: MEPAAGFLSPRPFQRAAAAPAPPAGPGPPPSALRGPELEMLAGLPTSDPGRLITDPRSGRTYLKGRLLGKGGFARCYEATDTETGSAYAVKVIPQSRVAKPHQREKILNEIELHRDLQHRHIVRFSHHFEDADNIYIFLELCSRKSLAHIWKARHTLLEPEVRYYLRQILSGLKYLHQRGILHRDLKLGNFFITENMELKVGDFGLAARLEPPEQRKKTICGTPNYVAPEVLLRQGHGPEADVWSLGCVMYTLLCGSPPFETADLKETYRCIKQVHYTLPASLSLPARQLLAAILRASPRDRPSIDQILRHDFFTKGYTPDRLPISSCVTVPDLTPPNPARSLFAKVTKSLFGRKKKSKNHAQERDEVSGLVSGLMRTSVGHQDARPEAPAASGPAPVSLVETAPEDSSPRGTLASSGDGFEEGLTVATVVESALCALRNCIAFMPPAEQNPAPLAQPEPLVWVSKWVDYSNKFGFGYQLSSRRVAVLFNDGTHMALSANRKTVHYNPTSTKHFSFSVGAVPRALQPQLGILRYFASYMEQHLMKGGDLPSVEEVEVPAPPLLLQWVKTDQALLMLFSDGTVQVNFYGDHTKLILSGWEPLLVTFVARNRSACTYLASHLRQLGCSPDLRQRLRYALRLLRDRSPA
UniProt Q9Y5S2, whole entry, stated change not applied: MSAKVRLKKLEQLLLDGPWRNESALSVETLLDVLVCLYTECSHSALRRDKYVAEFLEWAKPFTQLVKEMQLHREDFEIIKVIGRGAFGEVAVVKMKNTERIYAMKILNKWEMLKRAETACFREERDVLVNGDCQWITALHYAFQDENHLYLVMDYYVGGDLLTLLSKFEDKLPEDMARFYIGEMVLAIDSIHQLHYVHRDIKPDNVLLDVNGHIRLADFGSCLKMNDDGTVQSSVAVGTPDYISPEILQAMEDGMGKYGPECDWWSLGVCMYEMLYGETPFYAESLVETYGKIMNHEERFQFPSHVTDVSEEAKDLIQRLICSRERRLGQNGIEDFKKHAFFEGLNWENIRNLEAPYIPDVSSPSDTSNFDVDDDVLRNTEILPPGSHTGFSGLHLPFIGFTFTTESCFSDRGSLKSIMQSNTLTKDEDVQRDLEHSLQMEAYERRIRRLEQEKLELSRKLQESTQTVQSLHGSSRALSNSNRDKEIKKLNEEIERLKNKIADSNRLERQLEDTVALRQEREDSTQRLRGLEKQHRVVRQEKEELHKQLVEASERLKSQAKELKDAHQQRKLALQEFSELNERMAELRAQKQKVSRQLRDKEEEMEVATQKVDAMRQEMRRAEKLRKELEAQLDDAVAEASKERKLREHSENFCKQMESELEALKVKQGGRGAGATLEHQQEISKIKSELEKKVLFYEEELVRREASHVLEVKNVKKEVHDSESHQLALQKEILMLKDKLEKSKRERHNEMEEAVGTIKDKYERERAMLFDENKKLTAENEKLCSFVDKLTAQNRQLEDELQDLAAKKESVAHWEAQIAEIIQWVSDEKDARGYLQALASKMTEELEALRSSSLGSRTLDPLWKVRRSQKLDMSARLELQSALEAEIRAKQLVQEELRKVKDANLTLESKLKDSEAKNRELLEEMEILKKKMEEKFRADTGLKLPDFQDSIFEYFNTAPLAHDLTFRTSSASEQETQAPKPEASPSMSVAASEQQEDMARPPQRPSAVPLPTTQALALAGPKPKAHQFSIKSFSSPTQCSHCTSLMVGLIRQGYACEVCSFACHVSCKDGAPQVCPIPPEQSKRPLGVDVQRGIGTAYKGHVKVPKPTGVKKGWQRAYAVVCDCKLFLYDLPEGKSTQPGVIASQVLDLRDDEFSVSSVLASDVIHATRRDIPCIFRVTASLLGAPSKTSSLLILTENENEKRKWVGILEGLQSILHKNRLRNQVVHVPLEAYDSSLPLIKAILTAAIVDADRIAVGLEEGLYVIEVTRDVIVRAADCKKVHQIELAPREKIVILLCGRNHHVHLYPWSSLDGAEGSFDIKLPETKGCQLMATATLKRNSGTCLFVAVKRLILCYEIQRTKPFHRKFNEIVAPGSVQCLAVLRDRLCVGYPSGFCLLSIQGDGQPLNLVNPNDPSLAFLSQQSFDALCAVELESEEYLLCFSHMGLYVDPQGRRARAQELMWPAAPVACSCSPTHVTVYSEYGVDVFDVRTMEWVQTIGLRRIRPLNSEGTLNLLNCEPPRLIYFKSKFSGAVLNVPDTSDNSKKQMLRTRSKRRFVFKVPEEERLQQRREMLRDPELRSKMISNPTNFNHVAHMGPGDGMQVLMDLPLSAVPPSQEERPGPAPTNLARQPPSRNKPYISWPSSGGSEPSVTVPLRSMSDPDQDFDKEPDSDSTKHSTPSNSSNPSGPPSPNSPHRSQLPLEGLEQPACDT
UniProt P10721, 26-976 V560G: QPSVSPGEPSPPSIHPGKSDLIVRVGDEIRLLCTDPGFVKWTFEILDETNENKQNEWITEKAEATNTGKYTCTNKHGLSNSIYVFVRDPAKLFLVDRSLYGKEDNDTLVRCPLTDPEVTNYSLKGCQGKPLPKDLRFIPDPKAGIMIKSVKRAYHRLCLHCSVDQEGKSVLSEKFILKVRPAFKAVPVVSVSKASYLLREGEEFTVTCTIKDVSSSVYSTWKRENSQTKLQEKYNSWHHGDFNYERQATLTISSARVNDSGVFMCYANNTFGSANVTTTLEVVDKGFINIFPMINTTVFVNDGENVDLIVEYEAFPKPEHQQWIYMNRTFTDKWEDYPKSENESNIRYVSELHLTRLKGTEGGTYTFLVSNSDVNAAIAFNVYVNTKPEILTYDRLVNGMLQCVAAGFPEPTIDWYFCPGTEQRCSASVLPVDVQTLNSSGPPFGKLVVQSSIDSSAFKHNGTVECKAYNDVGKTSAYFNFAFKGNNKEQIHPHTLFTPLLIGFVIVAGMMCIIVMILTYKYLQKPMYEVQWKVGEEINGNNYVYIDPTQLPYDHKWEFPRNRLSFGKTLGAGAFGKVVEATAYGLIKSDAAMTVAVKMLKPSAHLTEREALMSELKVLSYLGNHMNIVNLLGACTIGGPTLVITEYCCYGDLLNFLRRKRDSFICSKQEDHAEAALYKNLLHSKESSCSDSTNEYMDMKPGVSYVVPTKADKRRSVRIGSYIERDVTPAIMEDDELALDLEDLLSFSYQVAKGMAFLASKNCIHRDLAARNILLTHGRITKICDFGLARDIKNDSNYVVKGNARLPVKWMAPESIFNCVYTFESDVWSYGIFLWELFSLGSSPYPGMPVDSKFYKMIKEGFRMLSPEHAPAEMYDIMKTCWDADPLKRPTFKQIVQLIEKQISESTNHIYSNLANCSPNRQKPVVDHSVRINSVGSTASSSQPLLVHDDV
UniProt O75582, whole entry, stated change not applied: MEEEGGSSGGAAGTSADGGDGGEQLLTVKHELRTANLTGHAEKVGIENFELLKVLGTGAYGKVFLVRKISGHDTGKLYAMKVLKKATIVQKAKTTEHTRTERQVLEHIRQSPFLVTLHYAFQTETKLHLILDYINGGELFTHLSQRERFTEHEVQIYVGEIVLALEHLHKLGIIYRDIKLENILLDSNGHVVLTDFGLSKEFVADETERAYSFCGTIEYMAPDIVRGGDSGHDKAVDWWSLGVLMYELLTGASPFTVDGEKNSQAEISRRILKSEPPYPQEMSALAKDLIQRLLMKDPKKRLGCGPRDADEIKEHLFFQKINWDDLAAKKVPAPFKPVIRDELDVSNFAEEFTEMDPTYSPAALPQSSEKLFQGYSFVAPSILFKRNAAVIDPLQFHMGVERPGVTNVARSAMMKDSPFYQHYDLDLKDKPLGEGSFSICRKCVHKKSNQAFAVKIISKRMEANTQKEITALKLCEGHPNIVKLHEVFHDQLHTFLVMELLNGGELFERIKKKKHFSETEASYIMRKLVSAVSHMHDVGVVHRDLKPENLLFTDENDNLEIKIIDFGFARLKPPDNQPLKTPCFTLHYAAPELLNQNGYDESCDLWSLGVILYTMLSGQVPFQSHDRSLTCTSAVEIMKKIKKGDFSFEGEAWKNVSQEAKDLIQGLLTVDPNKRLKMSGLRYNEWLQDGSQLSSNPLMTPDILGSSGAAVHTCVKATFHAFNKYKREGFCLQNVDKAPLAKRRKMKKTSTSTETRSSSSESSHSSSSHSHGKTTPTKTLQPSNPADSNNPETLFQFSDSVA
UniProt Q9UHD2, whole entry, stated change not applied: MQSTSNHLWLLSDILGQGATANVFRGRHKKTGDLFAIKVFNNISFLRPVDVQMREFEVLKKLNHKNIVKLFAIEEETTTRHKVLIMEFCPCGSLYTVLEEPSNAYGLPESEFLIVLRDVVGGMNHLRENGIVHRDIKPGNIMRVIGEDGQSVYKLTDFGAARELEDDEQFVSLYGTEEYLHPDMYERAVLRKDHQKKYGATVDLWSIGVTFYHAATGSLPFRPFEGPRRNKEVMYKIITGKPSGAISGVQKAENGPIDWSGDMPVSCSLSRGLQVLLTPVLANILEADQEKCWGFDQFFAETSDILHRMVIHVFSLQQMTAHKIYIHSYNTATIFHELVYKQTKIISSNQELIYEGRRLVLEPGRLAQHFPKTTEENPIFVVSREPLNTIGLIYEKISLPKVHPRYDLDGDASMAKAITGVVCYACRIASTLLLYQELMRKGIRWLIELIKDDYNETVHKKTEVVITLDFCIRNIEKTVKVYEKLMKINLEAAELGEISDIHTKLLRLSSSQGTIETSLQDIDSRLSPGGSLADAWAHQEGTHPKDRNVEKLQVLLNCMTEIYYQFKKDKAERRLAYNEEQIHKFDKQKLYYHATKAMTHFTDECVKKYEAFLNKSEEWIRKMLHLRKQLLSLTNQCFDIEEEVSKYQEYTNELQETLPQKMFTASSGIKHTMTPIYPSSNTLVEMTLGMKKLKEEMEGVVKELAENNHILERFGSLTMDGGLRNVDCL
UniProt P53350, whole entry, stated change not applied: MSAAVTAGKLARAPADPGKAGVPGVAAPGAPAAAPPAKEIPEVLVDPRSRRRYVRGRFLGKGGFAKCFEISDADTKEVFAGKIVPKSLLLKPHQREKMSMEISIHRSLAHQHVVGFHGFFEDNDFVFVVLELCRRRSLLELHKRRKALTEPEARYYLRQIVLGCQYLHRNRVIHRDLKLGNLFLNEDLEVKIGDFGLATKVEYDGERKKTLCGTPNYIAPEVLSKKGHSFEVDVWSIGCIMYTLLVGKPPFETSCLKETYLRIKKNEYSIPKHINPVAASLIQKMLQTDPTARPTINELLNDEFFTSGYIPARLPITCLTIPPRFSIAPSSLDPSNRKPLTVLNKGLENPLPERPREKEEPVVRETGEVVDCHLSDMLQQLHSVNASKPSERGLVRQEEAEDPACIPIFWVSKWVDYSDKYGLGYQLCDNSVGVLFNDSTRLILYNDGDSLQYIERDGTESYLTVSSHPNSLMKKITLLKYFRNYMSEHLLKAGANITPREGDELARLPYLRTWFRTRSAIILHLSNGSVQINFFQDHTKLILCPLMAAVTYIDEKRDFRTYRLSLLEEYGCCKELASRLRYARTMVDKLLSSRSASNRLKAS
UniProt P31749, whole entry, stated change not applied: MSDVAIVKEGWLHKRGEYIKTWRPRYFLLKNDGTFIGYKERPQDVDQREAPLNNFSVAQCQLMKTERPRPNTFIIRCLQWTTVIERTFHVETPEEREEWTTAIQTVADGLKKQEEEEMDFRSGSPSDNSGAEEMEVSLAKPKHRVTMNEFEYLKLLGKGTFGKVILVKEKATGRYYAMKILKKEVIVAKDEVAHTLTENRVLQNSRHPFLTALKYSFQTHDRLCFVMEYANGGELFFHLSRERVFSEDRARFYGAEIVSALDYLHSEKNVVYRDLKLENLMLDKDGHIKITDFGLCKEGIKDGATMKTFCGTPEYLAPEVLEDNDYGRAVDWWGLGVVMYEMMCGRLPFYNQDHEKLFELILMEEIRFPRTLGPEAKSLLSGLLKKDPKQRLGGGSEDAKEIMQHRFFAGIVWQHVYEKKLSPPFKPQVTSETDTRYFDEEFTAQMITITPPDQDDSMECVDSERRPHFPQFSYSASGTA
UniProt Q9H1R3, whole entry, stated change not applied: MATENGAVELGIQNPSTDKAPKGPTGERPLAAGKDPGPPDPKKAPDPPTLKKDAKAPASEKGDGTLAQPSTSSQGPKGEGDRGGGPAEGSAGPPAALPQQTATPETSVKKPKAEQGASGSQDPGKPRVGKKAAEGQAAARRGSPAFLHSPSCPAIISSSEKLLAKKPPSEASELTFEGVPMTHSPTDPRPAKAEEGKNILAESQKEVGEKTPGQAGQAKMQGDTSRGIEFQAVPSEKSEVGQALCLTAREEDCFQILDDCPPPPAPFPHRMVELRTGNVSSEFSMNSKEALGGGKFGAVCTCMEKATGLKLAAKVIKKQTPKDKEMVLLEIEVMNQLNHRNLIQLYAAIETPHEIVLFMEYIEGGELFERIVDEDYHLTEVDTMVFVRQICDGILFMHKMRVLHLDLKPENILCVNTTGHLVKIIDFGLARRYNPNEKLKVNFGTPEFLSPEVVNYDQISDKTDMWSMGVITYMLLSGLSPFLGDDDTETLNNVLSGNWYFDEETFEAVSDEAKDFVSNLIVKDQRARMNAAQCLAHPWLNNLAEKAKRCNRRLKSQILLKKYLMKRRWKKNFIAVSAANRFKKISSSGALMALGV

Experiments:
Assay in all cases: Kinase profiling in a biochemical assay panel (mobility shift assays and ELISA), %-inhibition at 1 μM; selectivity entropy
[1] = biological target: panel of more than 300 wild-type and mutant kinases (313 kinase panel) (Homo sapiens, UniProt Q9H4B4)
[2] = biological target: panel of more than 300 wild-type and mutant kinases (313 kinase panel) (Homo sapiens, UniProt Q9Y5S2)
[3] = biological target: panel of more than 300 wild-type and mutant kinases (313 kinase panel) (Homo sapiens, UniProt P10721, V560G)
[4] = biological target: panel of more than 300 wild-type and mutant kinases (313 kinase panel) (Homo sapiens, UniProt O75582)
[5] = biological target: panel of more than 300 wild-type and mutant kinases (313 kinase panel) (Homo sapiens, UniProt Q9UHD2)
[6] = biological target: panel of more than 300 wild-type and mutant kinases (313 kinase panel) (Homo sapiens, UniProt P53350)
[7] = biological target: panel of more than 300 wild-type and mutant kinases (313 kinase panel) (Homo sapiens, UniProt P31749)
[8] = biological target: T1, panel of more than 300 wild-type and mutant kinases (313 kinase panel) (Homo sapiens, UniProt Q9UF33)
T1 sequence (Q9UF33 23-1036): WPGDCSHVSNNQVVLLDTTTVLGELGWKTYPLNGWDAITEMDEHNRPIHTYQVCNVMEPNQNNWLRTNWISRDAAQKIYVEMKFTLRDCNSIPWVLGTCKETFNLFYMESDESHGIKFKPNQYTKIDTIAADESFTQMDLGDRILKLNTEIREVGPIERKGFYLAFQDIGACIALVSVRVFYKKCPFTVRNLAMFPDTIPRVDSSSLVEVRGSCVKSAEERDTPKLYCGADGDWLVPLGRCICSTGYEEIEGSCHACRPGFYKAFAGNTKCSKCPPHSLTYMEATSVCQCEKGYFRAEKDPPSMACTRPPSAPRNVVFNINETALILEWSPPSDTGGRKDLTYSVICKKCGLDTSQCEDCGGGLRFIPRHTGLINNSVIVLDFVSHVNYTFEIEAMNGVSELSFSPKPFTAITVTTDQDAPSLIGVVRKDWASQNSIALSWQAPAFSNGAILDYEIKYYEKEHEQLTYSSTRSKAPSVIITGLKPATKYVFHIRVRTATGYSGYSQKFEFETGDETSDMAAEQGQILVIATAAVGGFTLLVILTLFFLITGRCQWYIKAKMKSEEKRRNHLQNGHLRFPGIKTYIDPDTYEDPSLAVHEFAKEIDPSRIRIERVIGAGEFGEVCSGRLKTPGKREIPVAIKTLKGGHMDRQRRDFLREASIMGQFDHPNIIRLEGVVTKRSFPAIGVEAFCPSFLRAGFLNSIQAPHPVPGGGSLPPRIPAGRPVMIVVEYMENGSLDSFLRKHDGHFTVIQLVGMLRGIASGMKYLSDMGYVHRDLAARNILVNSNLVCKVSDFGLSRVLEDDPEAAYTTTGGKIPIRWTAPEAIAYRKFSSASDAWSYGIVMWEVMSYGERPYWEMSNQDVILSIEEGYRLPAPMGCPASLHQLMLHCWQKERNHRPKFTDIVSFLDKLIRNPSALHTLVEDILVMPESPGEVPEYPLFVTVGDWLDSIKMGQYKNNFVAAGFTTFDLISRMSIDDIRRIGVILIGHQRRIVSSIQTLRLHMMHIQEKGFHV

[9] = biological target: panel of more than 300 wild-type and mutant kinases (313 kinase panel) (Homo sapiens, UniProt O00311)
[10] = biological target: panel of more than 300 wild-type and mutant kinases (313 kinase panel) (Homo sapiens, UniProt Q9H1R3)
[11] = biological target: panel of more than 300 wild-type and mutant kinases (313 kinase panel) (Homo sapiens, UniProt P10721, T670I)

Compound	%-inhibition of PLK3 ([1]; 1 µM)	%-inhibition of MRCKβ ([2]; 1 µM)	%-inhibition of KIT(V560G) ([3]; 1 µM)	%-inhibition of MSK1 ([4]; 1 µM)	%-inhibition of TBK1 ([5]; 1 µM)	%-inhibition of PLK1 ([6]; 1 µM)	%-inhibition, AKT1 ([7]; 1 µM)	%-inhibition of EPHA6 ([8]; 1 µM)	%-inhibition, CDC7/ASK ([9]; 1 µM)	%-inhibition of skMLCK ([10]; 1 µM)	%-inhibition of KIT(T670I) ([11]; 1 µM)	other results
CNC(=O)c1ccccc1Sc1ccc2c(/C=C/c3ccccn3)n[nH]c2c1 [axitinib]	–	–	–	–	–	–	–	–	–	–	–	%-inhibition of PLK3 ([1]; kinase PLK3, 1 μM): -3.41%; %-inhibition of MRCKβ ([2]; kinase MRCKβ, 1 μM): 2.46%; %-inhibition of KIT(V560G) ([3]; kinase KIT(V560G), compound at 1 μM): 96%; %-inhibition of MSK1 ([4]; kinase MSK1, 1 μM): 3.59%; %-inhibition of TBK1 ([5]; kinase TBK1, 1 μM): 34%; %-inhibition of PLK1 ([6]; kinase PLK1, 1 μM): -3.71%; %-inhibition, AKT1 ([7]; kinase AKT1, 1 μM compound): 0.315%; %-inhibition of EPHA6 ([8]; kinase EPHA6, compound at 1 μM): 51%; %-inhibition, CDC7/ASK ([9]; kinase CDC7/ASK, 1 μM compound): -7%; %-inhibition of skMLCK ([10]; kinase skMLCK, 1 μM): 5.34%; %-inhibition of KIT(T670I) ([11]; kinase KIT(T670I), compound at 1 μM): 96%
COc1cc2ncnc(Nc3ccc(F)c(Cl)c3)c2cc1OCCCN1CCOCC1 [gefitinib]	9%	0.477%	23%	7%	26%	-6.65%	3.35%	85%	4%	21%	8%	–
C[C@@H]1CCN(C(=O)CC#N)C[C@@H]1N(C)c1ncnc2[nH]ccc12 [tofacitinib]	-5%	1.08%	-1.06%	9%	9%	1.47%	-6.52%	-1.06%	-4%	-1.88%	2.56%	–
